Measured values taken from patent US10730883B2 (AbbVie Inc., priority 2015, dated 2020).

Tests used:
[1] = tested on: healthy subjects; test: Study 2-Part 1: safety and tolerability, multiple doses, healthy subjects; format: in vivo, human; conditions: 24 mg BID dose group, 14 days
[2] = subjects with RA on stable methotrexate

## CC[C@@H]1CN(C(=O)NCC(F)(F)F)C[C@@H]1c1cnc2cnc3[nH]ccc3n12 [Compound 1, (3S,4R)-3-ethyl-4-(3H-imidazo[1,2-a]pyrrolo[2,3-e]pyrazin-8-yl)-N-(2,2,2-trifluoroethyl)pyrrolidine-1-carboxamide]
[1]
  overall incidence of TEAEs: 50%
[2]
  Pharmacokinetic interaction with methotrexate: no pharmacokinetic interaction between methotrexate and Compound 1
